Laboratory results as given in US11364214B2, “Compositions and methods for treating eczema” (Dermala Inc., priority 2016, dated 2022).
In brackets after ≈: the same amount, converted by molar mass.

Legend:
Format in all cases: cell-based
S. aureus (ATCC 29213) [1] = assay: Minimal inhibitory concentration (MIC) assay, microbroth dilution (CLSI M100-S22); conditions: 10% DMSO, 16 hours at 37° C.
[2] = system: S. aureus strain 8325-4 and 5 clinical isolates of S. aureus from the skin of AD patients; assay: MIC and MBC of PA and PA derivatives in the presence/absence of keratinocyte lysates; conditions: 0-100 mM, 48 hours
S. aureus (ATCC 29213) [3] = assay: Time-kill assay (bactericidal activity); conditions: 4× the determined MIC; 0.2 mg/ml porcine liver esterase; sampled at 0, 1, 5, 24 hours; FIG. 4
Procedure: This inoculum preparation was used for all experiments. Time-kill assay: A time-kill assay was performed to monitor the bactericidal activity of propionic acid (PA). […] Assays were performed in 100 μl volumes in 96-well plates and incubated at 37° C. in a sealed bag to prevent evaporation. […] Bacterial growth was determined by counting CFUs. […] Each drug was used at a concentration 4× the MIC value and 0.2 mg/ml porcine liver esterase. The assay was setup and evaluated as described above.

SMILES: CCC(=O)OCC(COC(=O)CC)OC(=O)CC [tri-PA, glyceryl tripropionate-tripropionin]
- MIC against S. aureus with esterase added (S. aureus (ATCC 29213) [1]; 0.2 mg/ml porcine liver esterase): 7.5 mM
- MIC against S. aureus (S. aureus (ATCC 29213) [1]; no esterase added, first well showing ≥90% reduction in growth): 30 mM (≈ 7810 µg/mL)
- antimicrobial properties against S. aureus (MIC, MBC) [2]: displaying both the anti-S. aureus and anti-inflammatory properties
- time after which S. aureus is completely killed (S. aureus (ATCC 29213) [3]): 24 h
